The text below walks through data of patent publication US20080267971A1.

By UniProt entry, the sequences of proteins in these tests, tags left out. Where a name states a change or a piece, a line headed by the entry shows the natural chain unless it says otherwise.
UniProt O15123: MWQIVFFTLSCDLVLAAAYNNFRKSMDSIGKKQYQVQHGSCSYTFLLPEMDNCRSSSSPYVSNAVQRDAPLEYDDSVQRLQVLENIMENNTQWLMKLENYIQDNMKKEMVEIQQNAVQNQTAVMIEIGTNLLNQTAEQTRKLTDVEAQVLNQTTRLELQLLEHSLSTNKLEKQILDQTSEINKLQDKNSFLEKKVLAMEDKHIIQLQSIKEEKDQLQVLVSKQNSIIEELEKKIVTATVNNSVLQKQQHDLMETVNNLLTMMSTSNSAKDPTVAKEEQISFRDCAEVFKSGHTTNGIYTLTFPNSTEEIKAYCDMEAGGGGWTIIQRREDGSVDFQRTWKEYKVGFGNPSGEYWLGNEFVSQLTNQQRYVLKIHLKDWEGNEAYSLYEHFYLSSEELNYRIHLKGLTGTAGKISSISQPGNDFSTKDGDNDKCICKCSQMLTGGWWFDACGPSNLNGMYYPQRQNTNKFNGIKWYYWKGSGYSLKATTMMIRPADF
UniProt O35608: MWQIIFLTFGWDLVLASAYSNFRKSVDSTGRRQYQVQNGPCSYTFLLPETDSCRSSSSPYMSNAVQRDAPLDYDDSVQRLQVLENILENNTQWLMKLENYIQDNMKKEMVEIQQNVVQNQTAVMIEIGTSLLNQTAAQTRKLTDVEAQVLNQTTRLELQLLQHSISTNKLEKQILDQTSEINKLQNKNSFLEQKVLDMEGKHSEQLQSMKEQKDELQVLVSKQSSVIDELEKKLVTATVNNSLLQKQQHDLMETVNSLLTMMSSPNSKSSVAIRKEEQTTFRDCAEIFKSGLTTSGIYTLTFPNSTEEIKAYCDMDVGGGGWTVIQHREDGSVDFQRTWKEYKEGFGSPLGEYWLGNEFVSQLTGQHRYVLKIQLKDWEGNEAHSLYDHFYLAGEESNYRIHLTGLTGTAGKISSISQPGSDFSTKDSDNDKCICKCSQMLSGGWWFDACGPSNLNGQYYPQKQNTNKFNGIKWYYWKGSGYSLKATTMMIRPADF

For assay [1], the target named is human Angiopoietin-2 (human) (UniProt O15123). The experiment in a line: inhibition of rhAng-2 binding to its receptor.
The target of assay [2] is Mouse/Human Ang-2 StuI chimeric molecule (mouse; human) (UniProt O35608). Kind of assay: ELISA.
For assay [3], the target named is T1, Human Ang-1/2 BsmI chimeric molecule (human).
T1 sequence: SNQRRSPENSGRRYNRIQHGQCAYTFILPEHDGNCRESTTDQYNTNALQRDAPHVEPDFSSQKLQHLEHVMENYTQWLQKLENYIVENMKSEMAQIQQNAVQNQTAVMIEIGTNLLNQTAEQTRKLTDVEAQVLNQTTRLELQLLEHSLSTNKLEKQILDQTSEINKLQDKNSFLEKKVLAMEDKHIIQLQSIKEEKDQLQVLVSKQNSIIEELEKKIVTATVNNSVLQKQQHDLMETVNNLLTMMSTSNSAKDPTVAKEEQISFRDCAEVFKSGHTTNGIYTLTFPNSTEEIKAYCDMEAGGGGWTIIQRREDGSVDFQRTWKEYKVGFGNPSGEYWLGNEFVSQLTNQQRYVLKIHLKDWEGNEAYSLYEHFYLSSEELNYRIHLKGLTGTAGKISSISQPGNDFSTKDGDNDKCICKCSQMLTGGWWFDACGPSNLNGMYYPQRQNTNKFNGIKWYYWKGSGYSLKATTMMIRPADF
The experiment in a line: ELISA.

For assay [4], the target named is human Ang-2 V345M (human) (UniProt O15123). Kind of assay: ELISA.
Assay [5] deals with human Ang-2 H375Q (human) (UniProt O15123). The experiment in a line: ELISA.
In the next assay the target is human Ang-2443 (human) (UniProt O15123). Kind of assay: ELISA.
The target of assay [6] is Mouse/Human chimeric Ang-2 with the human StuI-TfiI fragment (mouse/human chimera) (UniProt O35608). The experiment in a line: ELISA.
For assay [7], the target named is human Ang-2 changed at positions 365 and 367 (human) (UniProt O15123). The experiment in a line: ELISA.

B1: mAb 5.14.1 (antibody, part only; not given: light chain, V domains shown, part only)
VH: QVQLVQSGAEVKKPGASVKVSCKASGYTFTGYYMYWVRQAPGQGLEWMGWINPNSGGTNYAQKFQGRVTMTRDTSISTAYMELSRLRSDDTAVYYCARDQGITVAGPFDYWGQGSLVTVSSA
In assay [1], B1 registered an OD650 in inhibition assay of 0.043 OD650. For the same molecule, the % of binding to human Ang-2 came out at 100% in assay [2]; 100% in assay [3]; 100% in assay [4]; 100% in assay [5]; 100% with human Ang-2443 (human); 31% in assay [6]. This molecule yielded a % of binding to human Ang-2 in assay [7] of 100%.

B2: mAb 5.101.1 (antibody, V domains shown)
VH: QVQLVQSGAEVKKPGASVKVSCKASGYTFTGYYMHWVPQAPGQGLEWMGWINPNSGGTNYAQKFQGRVTMTRDTSISTAYMELRRLRSDDTAVYYCARDGGSIPVSGHFDYWGQGTLVTVSS
VL: EIVMTQSPATLSVSPGERATLSCRASQSLISNLAWYQQKPGQAPRLLIFGASTRATGIPARFSGSGSGTEFTLTISSLQSEDFAVYYCHQYNNWWTFGQGTKVEIKR
Take B2: in assay [7], the % of binding to human Ang-2 was 100%.
